Results taken from patent US12410179B2, “Modulators of TNF alpha activity and uses thereof” (RayThera, Inc., priority 2023, dated 2025).

Protein sequences, listed by entry. Tags and fused reporters are not part of them. Residues count along the entry.
UniProt P01375, 77-233 limits assumed: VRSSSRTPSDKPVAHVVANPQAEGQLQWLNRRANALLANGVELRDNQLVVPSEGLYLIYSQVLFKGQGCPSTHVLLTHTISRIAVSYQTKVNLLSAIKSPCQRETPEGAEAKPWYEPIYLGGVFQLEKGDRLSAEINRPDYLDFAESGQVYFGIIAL

Target: TNFα (Homo sapiens, UniProt P01375)
Experiment: HEK-Blue hTNFα reporter assay
Conditions: read-out: IC50 Range; HEK-Blue hTNFα reporter cells, SEAP readout

Structure (SMILES)	pIC50
[2H]C([2H])([2H])N1C(=O)c2cccc(OC(F)F)c2[C@H]2C[C@@H]1c1nn3cc(F)c(-c4cnc(C5(N)CC5)nc4)cc3c12	> 7.60
[2H]C([2H])([2H])N1C(=O)c2cccc(OC(F)F)c2[C@H]2C[C@@H]1c1nn3cnc(-c4cnc([C@]5(N)C[C@@](C)(O)C5)nc4)cc3c12	> 7.60
C[C@]1(O)C[C@](N)(c2ncc(-c3cc4c5c(nn4cc3F)[C@H]3C[C@@H]5c4c(OC(F)F)cccc4C(=O)N3)cc2F)C1	> 7.60
CN1C(=O)c2ccnc(OC(F)F)c2[C@H]2C[C@@H]1c1nn3ccc(-c4cnc(C5(O)CC(F)(F)C5)nc4)cc3c12	> 7.60
CN1C(=O)c2cccc(OC(F)F)c2[C@H]2C[C@@H]1c1nn3ccc(-c4cnc(N5CC6(COC6)C5)nc4)cc3c12	> 7.60
CN1C(=O)c2cccc(OC(F)F)c2[C@H]2C[C@@H]1c1nn3cnc(-c4cnc(C5(O)CC(F)(F)C5)nc4)cc3c12	> 7.60
NC1(c2ncc(-c3cc4c5c(nn4cc3F)[C@H]3C[C@@H]5c4c(OC(F)F)cccc4C(=O)N3)cn2)CCC1	> 7.60
[2H]C([2H])([2H])N1C(=O)c2ccc(F)c(OC(F)F)c2[C@H]2C[C@@H]1c1nn3cc(F)c(-c4cnc([C@]5(N)C[C@@](C)(O)C5)nc4)nc3c12	> 7.60

pIC50: −log10 of the molar value.
